The numbers were not newly measured in patent US20030059826A1, “SOLUBLE COM[…]” (priority 1997, published 2003), which cites them from elsewhere.

Usually Kd stands for the constant that tells how readily two partners part at equilibrium.

In the data set the target is anti-β-endorphin monoclonal antibody 3E7. The conditions noted are these: antibody binding to its natural epitope.

Turning to “Tyr-Gly-Gly-Phe-Leu-OH [leucine enkephalin]”, the Kd was 7.1 nM.
